Data as given in PMC10459710 (Viruses, 2023).

System: HSV-1
Test: Virus attachment assay (IFA, anti-gD)
Assay type: cell-based, Herpes simplex virus type 1 (strain H129)
Conditions: 100 µg/mL, 4 °C, MOI 10

Dextran Sulfate Sodium [DSS]
binding of HSV-1 to Vero cells: completely inhibited the binding
